Measurements reported in patent US11364214B2, “Compositions and methods for treating eczema” (Dermala Inc., priority 2016, dated 2022).

Experiments:
Assay type in all cases: cell-based
[1] = system: S. aureus (ATCC 29213); test: Minimal inhibitory concentration (MIC) assay, microbroth dilution (CLSI M100-S22); details: 10% DMSO, 16 hours at 37° C.
[2] = system: S. aureus strain 8325-4 and 5 clinical isolates of S. aureus from the skin of AD patients; test: MIC and MBC of PA and PA derivatives in the presence/absence of keratinocyte lysates; details: 0-100 mM, 48 hours
[3] = system: S. aureus (ATCC 29213); test: Time-kill assay (bactericidal activity); details: 4× the determined MIC; 0.2 mg/ml porcine liver esterase; sampled at 0, 1, 5, 24 hours; FIG. 4
Procedure: This inoculum preparation was used for all experiments. Time-kill assay: A time-kill assay was performed to monitor the bactericidal activity of propionic acid (PA). […] Assays were performed in 100 μl volumes in 96-well plates and incubated at 37° C. in a sealed bag to prevent evaporation. […] Bacterial growth was determined by counting CFUs. […] Each drug was used at a concentration 4× the MIC value and 0.2 mg/ml porcine liver esterase. The assay was setup and evaluated as described above.

MIC against S. aureus with esterase added ([1]; 0.2 mg/ml porcine liver esterase): 7.5 mM
MIC against S. aureus ([1]; no esterase added, first well showing ≥90% reduction in growth): 30 mM (≈ 7810 µg/mL)
SMILES: CCC(=O)OCC(COC(=O)CC)OC(=O)CC [tri-PA, glyceryl tripropionate-tripropionin]
antimicrobial properties against S. aureus (MIC, MBC) [2]: displaying both the anti-S. aureus and anti-inflammatory properties
time after which S. aureus is completely killed [3]: 24 h

In brackets after ≈: the same amount, converted by molar mass.
